Experimental data taken from patent US20260043008A1, “CELL CRYOPRESERVATIVE FORMULATIONS AND METHODS OF USE” (ASTELLAS INSTITUTE FOR REGENERATIVE MEDICINE, priority 2022, published 2026).

System: RPE cells
Test: Post-thaw cell count and viability of RPE cells with or without albumin, trypan blue, Vi-CELL BLU
Type: cell-based
Conditions: especially when stored for up to 6 hours before freezing; Table 7
Description: RPE cells were pooled in a 225 mL bottle and washed with 200 mL of 0.5% rHA/DPBS by centrifugation at 500× g for 5 minutes. Washing was repeated 4 times in total.
RPE cells were resuspended with 2.5% rHA/0.09%Glucose/DPBS, followed by mixing with DMSO-containing buffer at a volume ratio of 1:1.
Thirty (30) μL of formulated RPE cells were added to Crystal Zenith® (CZ) vials (West Pharmaceutical Services, Inc. Exton, PA) and cryopreserved using a controlled rate freezer under different cryopreservation conditions, for example, different types of storage containers, different pre-freeze storage temperature, and different pre-freeze duration, as shown in Table 6. Vials were then transferred and stored in the vapor phase of liquid nitrogen.
Post-thaw cell viability was evaluated using the trypan blue method using Vi-CELL BLU Cell Viability Analyzer (Beckman Coulter, Inc., Indianapolis, IN).

albumin: recombinant human albumin, excipient of the formulations
Post-thaw viability with versus without albumin: stabilizing effect
